Among the data in PubChem BioAssay AID1377 (University of Pittsburgh Molecular Library Screening Center, 2008) are viability rescue values, retold here.

The entries are a selection whose mix differs from that of the whole data set. Some results for these compounds are left out of this collection, so the calls shown say nothing about other tests. Activity calls are given as the source filed them.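 The calls were made as follows: active = activation, scaled between plate controls, above about 75% (limit read from the data); inactive = activation under that limit.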

The experiment can be described thus: inhibitors of zVAD-triggered necroptosis, primary screen, L929 cells (AID 1377).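 Also: 0% = zVAD with DMSO and 100% = DMSO alone without zVAD.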 The settings on record: ATP luminescence, 24 h, at 10 µM, hits give high values; with zVAD 60 µM unless noted.
`CN(C)C1CCCC1OC(=O)C(O)(c1ccccc1)c1ccccc1` (stereo unspecified): the viability rescue is inactive: 0.66%.

For the compound `Cc1ccccc1C(=O)NCC1(N2CCCCC2)CCCCC1`, the viability rescue is inactive: -3.11%.

`CCN1CCCC(OC(=O)C2(O)c3ccccc3C=Cc3ccccc32)C1` (stereo unspecified): the viability rescue is inactive: 0.67%. As for `C=CCN1CCN(CCOC(=O)C(O)(c2ccccc2)c2ccccc2)CC1`, the viability rescue is inactive: -1.17%.

With `O=C(NCC1(N2CCCCC2)CCCCC1)c1cc([N+](=O)[O-])ccc1Cl`, the viability rescue is inactive: 20.7%. Next, `CCN(CC)CC(C)C(C)OC(=O)C(O)(c1ccccc1)c1ccccc1` (stereo unspecified): inactive: -0.51%; `CC(C)N1C(=O)CC2(CCN(CCOC(=O)C(O)(c3ccccc3)c3ccccc3)CC2)C1=O`: inactive: 0.52% [with zVAD 20 µM].

In the case of `O=C(OC1CN2CCC1CC2)C(CO)(c1ccccc1)c1ccccc1` (stereo unspecified), the viability rescue was inactive: 0.02% [with zVAD 20 µM]. Next, `CN(C)c1cccc(C(=O)NCC2(N(C)C)CCCCC2)c1`: inactive: 1.32% [with zVAD 20 µM]; `COc1ccc(Br)c(C(=O)NCC2(N3CCCCC3)CCCCC2)c1`: inactive: -0.91%. Next, `COc1cccc(C(=O)NCC2(N3CCCCC3)CCCCC2)c1`: inactive: 0.69%.
